Structures are written as SMILES. The entries are a selection whose mix differs from that of the whole data set. Some tests of the compounds listed are not included; inactive here does not mean inactive elsewhere. Calls of active or inactive are those of the source. Cut-off read from the data, not from the text of the source: active = inhibition above about 75%; inconclusive = no clear call, values can overlap the other calls; inactive = below that; tested in HMLE shEcad cells.

22 compounds from PubChem BioAssay AID2717 (Broad Institute, 2010) can be followed below.

This assay can be described thus: growth suppression of cancer stem-like cells – cell-based, luminescence, primary screen (AID 2717). The note with it: cancer stem cell-like cells viability, at 7.5 µM, stronger effect = higher value.
As a reminder, the inhibition is the drop in the measured response relative to a control, in per cent. For `COc1ccc(C(=O)NCC2(N(C)C)CCCCC2)cc1`, the inhibition is inactive: -7.1%.
Then `CCN1CCCC(OC(=O)C2(O)c3ccccc3C=Cc3ccccc32)C1` (configuration not stated), with inactive: -1.04%; and `Cc1cc(C(=O)NCC2(N3CCCCC3)CCCCC2)ccc1[N+](=O)[O-]`, with inactive: 16%.
Consider `O=C(NCC1(N2CCCCC2)CCCCC1)c1cccc(Br)c1`, for which the inhibition is inactive: -2.3%.
`C=CCN1CCN(CCOC(=O)C(O)(c2ccccc2)c2ccccc2)CC1`: the inhibition was inactive: -6.96%.
As for `Cc1ccccc1C(=O)NCC1(N2CCCCC2)CCCCC1`, the inhibition is inactive: -12.1%.
Then `CN(C)c1ccc(C(=O)NCC2(N(C)C)CCCCC2)cc1`, with inactive: -4.27%; and `CN(C)C1CCCC1OC(=O)C(O)(c1ccccc1)c1ccccc1` (configuration not stated), with inactive: -2.59%; and `Cc1ccc(C(=O)NCC2(N3CCCCC3)CCCCC2)cc1`, with inactive: -4.12%.
With `CCN(CC)CC(C)C(C)OC(=O)C(O)(c1ccccc1)c1ccccc1` (configuration not stated), the inhibition is inactive: -18.2%.
Then `COc1cc(SC)ccc1C(=O)NCC1(N(C)C)CCCCC1`, with inactive: -6.21%; and `CC(C)N1C(=O)CC2(CCN(CCOC(=O)C(O)(c3ccccc3)c3ccccc3)CC2)C1=O`, with inactive: -15.5%; and `CN1[C@@H]2CC[C@H]1CC(OC(=O)C(O)(c1ccccc1)c1ccccc1)C2` (some centres not stated), with inactive: -11.1%.
On to `O=C(NCC1(N2CCCCC2)CCCCC1)c1cc([N+](=O)[O-])ccc1Cl`, for which the inhibition is inactive: 4.91%.
Then `CC(C)Oc1ccc(C(=O)NCC2(N(C)C)CCCCC2)cc1`, with inactive: -4.63%; and `CN(C)c1cccc(C(=O)NCC2(N(C)C)CCCCC2)c1`, with inactive: -0.153%.
To `COc1ccc(Br)c(C(=O)NCC2(N3CCCCC3)CCCCC2)c1` belongs inactive: 8.12%.
Then `O=C(OC1CN2CCC1CC2)C(CO)(c1ccccc1)c1ccccc1` (configuration not stated), with inactive: -19.9%; and `O=C(NCC1(N2CCCCC2)CCCCC1)c1cccc(Cl)c1`, with inactive: -5.06%; and `COc1ccc(Cl)cc1C(=O)NCC1(N(C)C)CCCCC1`, with inactive: -10.3%.
In the case of `COc1cc(C(=O)NCC2(N(C)C)CCCCC2)c([N+](=O)[O-])cc1OC`, the inhibition was inactive: -10.2%.
To `CN(C)C1(CNC(=O)c2ccc(Br)cc2)CCCCC1` belongs inactive: -14.7%.
